{"source": "paper PMC8776733", "about": "“In vivo spatiotemporal control of voltage-gated ion channels by using photoactivatable peptidic toxins” (Nature Communications, 2022)", "key": {"[1]": {"target": "T1, hNaV1.7 (Homo sapiens, UniProt Q15858)", "T1 construct": "expressed in transfected cells", "test": "Automated patch-clamp, whole-cell Na+ current inhibition", "format": "cell-based", "conditions": "currents elicited at 10 mV from holding potential -100 mV; Hill fit; read-out: IC50 for hNaV1.7 current inhibition (Fig. 2d)"}, "[2]": {"test": "Dark stability in solution", "format": "physicochemical", "conditions": "in the dark (Supplementary Fig. 2)"}, "[3]": {"target": "T2, hNaV1.6 (Homo sapiens, UniProt Q9UQD0)", "T2 construct": "expressed in transfected cells", "test": "Photoactivation by UV illumination combined with automated patch-clamp", "format": "cell-based", "conditions": "100 nM, no illumination", "description": "(§1) HEK293 cells stably expressing the hNaV1.1 (XM_011511604), hNaV1.2 (XM_017004655) or hNaV1.6 (XM_011538651) channels, CHO cells transiently expressing hKV1.2 (NG_027997.2) and CHO cells stably expressing hNaV1.7 (XM_011511618) or the hERG (NM_000238) channels were cultured in Dulbecco’s Modified Eagle’s Medium (DMEM) supplemented with 10% fetal bovine serum, 1 mM pyruvic acid, 4.5 g/L glucose, 4 mM glutamine, 800 µg/mL G418, 10 U/mL penicillin and 10 μg/mL streptomycin (Gibco, Grand Island, NY). All cell lines were incubated at 37 °C in a 5% CO2 atmosphere. For electrophysiological recordings, cells were detached with trypsin and floating single cells were diluted (~300,000 cells/mL) in medium contained (in mM): […], 4 KCl, 2 CaCl2, 1 MgCl2, 5 glucose, and 10 HEPES (pH 7.4, osmolarity 298 mOsm).\nAutomated patch-clamp recordings were performed using the SyncroPatch 384PE from Nanion (München, Germany). […] Current inhibition percentages were measured at equilibrium after 14 min peptide application time. […]\nThe pharmacology of HwTxIV-Nvoc, as well as the efficiency of the released product to block hNaV channels was studied using combined automated patch-clamp and UV illumination. After 2 min of control, HwTxIV-Nvoc was added to the external buffer and effects were recorded for 100 s prior to a 250 s-duration illumination for photocleavage induction of the caged compound. […]"}, "[4]": {"target": "T2, hNaV1.6", "test": "Automated patch-clamp, whole-cell Na+ current inhibition", "format": "cell-based", "conditions": "currents elicited at 10 mV from holding potential -100 mV; Hill fit; read-out: IC50 for hNaV1.6 current inhibition (Fig. 2a, Fig. 3g)", "description": "as §1\n(§2) Automated patch-clamp recordings were performed using the SyncroPatch 384PE from Nanion (München, Germany). Chips with single-hole medium resistance of 4.52 ± 0.08 MΩ (n = 384) were used for recordings. Pulse generation and data collection were performed with the PatchControl384 v1.5.2 software (Nanion) and the Biomek v1.0 interface (Beckman Coulter). Whole-cell recordings were conducted according to the recommended procedures of Nanion. Cells were stored in a cell hotel reservoir at 10 °C with shaking speed at 60 RPM. After initiating the experiment, cell catching, sealing, whole-cell formation, liquid application, recording, and data acquisition were all performed sequentially and automatically. For sodium channel recordings, intracellular solution was (in mM): 10 CsCl, 110 CsF, 10 NaCl, 10 EGTA, and 10 HEPES (pH 7.2, osmolarity 280 mOsm), while being 10 KCl, 110 KF, 10 NaCl, 10 EGTA, and 10 HEPES (pH 7.2, osmolarity 280 mOsm) for potassium channel recordings. Extracellular solution was (in mM): 140 NaCl, 4 KCl, 2 CaCl2, 1 MgCl2, 5 glucose, and 10 HEPES (pH 7.4, osmolarity 298 mOsm). […] Current inhibition percentages were measured at equilibrium after 14 min peptide application time. […]"}, "[5]": {"target": "T3, hNaV1.1 (Homo sapiens, UniProt P35498)", "T3 construct": "expressed in transfected cells", "test": "Automated patch-clamp, whole-cell Na+ current inhibition", "format": "cell-based", "conditions": "currents elicited at 10 mV from holding potential -100 mV; Hill fit; read-out: IC50 for hNaV1.1 current inhibition (Fig. 2b)", "description": "as §1, §2"}, "[6]": {"target": "T4, hNaV1.2 (Homo sapiens, UniProt Q99250)", "T4 construct": "expressed in transfected cells", "test": "Automated patch-clamp, whole-cell Na+ current inhibition", "format": "cell-based", "conditions": "currents elicited at 10 mV from holding potential -100 mV; Hill fit; read-out: IC50 for hNaV1.2 current inhibition (Fig. 2c)", "description": "as §1, §2"}}, "note": "pIC50: −log10 of the molar value."}
{"smiles": "CC[C@H](C)[C@@H]1NC(=O)CNC(=O)[C@H](CC(C)C)NC(=O)[C@@H](NC(=O)CN)CSSC[C@@H]2NC(=O)[C@@H]3CSSC[C@@H](C(=O)N[C@@H](CCCCNC(=O)OCc4cc(OC)c(OC)cc4[N+](=O)[O-])C(=O)N[C@@H](Cc4ccc(O)cc4)C(=O)N[C@@H](CCC(N)=O)C(=O)N[C@H](C(=O)N[C@@H](CCCCN)C(N)=O)[C@@H](C)CC)NC(=O)[C@H](Cc4c[nH]c5ccccc45)NC(=O)[C@H](CCCNC(=N)N)NC(=O)[C@H]([C@@H](C)O)NC(=O)[C@H](CCCCN)NC(=O)[C@H](CCCNC(=N)N)NC(=O)[C@H](CO)NC(=O)[C@H](CSSC[C@H](NC(=O)[C@H](C)NC(=O)[C@H](CCCCN)NC(=O)[C@H](Cc4ccccc4)NC1=O)C(=O)N[C@@H](CC(N)=O)C(=O)N1CCC[C@H]1C(=O)N[C@@H](CO)C(=O)N[C@@H](CC(N)=O)C(=O)N[C@@H](CC(=O)O)C(=O)N[C@@H](CCC(N)=O)C(=O)N3)NC(=O)[C@H](C(C)C)NC(=O)[C@H](CC(C)C)NC(=O)[C@H](CCCCN)NC(=O)[C@H](CO)NC(=O)[C@H](CO)NC(=O)[C@H](CCCCN)NC2=O", "note": "[HwTxIV-Nvoc]", "values": [{"measurement": "pIC50", "setting": "[1]", "result": 5.35}, {"measurement": "dark stability in solution", "setting": "[2]", "result": "> 1", "unit": "week"}, {"measurement": "activity on hNaV1.6 currents before illumination", "setting": "[3]", "result": "inactive"}, {"measurement": "pIC50", "setting": "[4]", "result": 5.18}, {"measurement": "pIC50", "setting": "[5]", "result": 5.55}, {"measurement": "pIC50", "setting": "[6]", "result": 5.29}]}
